Source: publication PMC7864192 (Cancers, 2021)

Columns and labels:
[1] = tested on: GCPA096 T1.I patient-derived AGCT cell line; assay: Cell viability drug screen (Cell Titer Glo 2.0, 72 h), mono- and combination therapy, GCPA096T1.I; conditions: GCPA096T1I
[2] = tested on: GCPA096 T1.II patient-derived AGCT cell line; assay: Cell viability drug screen (Cell Titer Glo 2.0, 72 h), mono- and combination therapy, GCPA096T1.II; conditions: GCPA096T1II
[3] = tested on: GCPA007 T2.IV patient-derived AGCT cell line; assay: Cell viability drug screen (Cell Titer Glo 2.0, 72 h), mono- and combination therapy, GCPA007T2.IV; conditions: GCPA007T2IV
[4] = tested on: GCPA007 T2.I patient-derived AGCT cell line; assay: Cell viability drug screen (Cell Titer Glo 2.0, 72 h), mono- and combination therapy, GCPA007T2.I; conditions: GCPA007T2I
[5] = tested on: GCPA108 T3.IV patient-derived AGCT cell line; assay: Cell viability drug screen (Cell Titer Glo 2.0, 72 h), mono- and combination therapy, GCPA108T3.IV; conditions: GCPA108T3IV
[6] = tested on: GCPA096 T1.XVI patient-derived AGCT cell line; assay: Cell viability drug screen (Cell Titer Glo 2.0, 72 h), mono- and combination therapy, GCPA096T1.XVI; conditions: GCPA096T1XVI
[7] = tested on: GCPA096 T1.XV patient-derived AGCT cell line; assay: Cell viability drug screen (Cell Titer Glo 2.0, 72 h), mono- and combination therapy, GCPA096T1.XV; conditions: GCPA096T1XV
[8] = tested on: GCPA096 T1.V patient-derived AGCT cell line; assay: Cell viability drug screen (Cell Titer Glo 2.0, 72 h), mono- and combination therapy, GCPA096T1.V; conditions: GCPA096T1V
[9] = tested on: GCPA113 T1.I patient-derived AGCT cell line; assay: Cell viability drug screen (Cell Titer Glo 2.0, 72 h), mono- and combination therapy, GCPA113T1.I; conditions: GCPA113T1I
[10] = tested on: GCPA028 T1.II patient-derived AGCT cell line; assay: Cell viability drug screen (Cell Titer Glo 2.0, 72 h), mono- and combination therapy, GCPA028
[11] = tested on: GCPA113 T1.II patient-derived AGCT cell line; assay: Cell viability drug screen (Cell Titer Glo 2.0, 72 h), mono- and combination therapy, GCPA113T1.II; conditions: GCPA113T1II
[12] = in combination Carbo+Pacli+6thio2dG
[13] = in combination Carbo+Pacli+Alpelisib
[14] = drug within Carbo+Pacli+6thio2dG
[15] = drug within Carbo+Pacli+Alpelisib

## CC(=O)O[C@H]1C(=O)[C@@]2(C)[C@H]([C@H](OC(=O)c3ccccc3)[C@]3(O)C[C@H](OC(=O)[C@H](O)[C@@H](NC(=O)c4ccccc4)c4ccccc4)C(C)=C1C3(C)C)[C@]1(OC(C)=O)CO[C@@H]1C[C@@H]2O [Paclitaxel]
[1]; in combination Carbo+Pacli
  DRI (Fa=0,5): 4.8
[1]; [12]
  DRI (Fa=0,5): 7.79
[1]; [13]
  DRI (Fa=0,5): 19.8
[2]; drug within Carbo+Pacli
  DRI (Fa=0,5): 6.18
[2]; [14]
  DRI (Fa=0,5): 12.77
[2]; [15]
  DRI (Fa=0,5): 31.92
[3]; in combination Carbo+Pacli
  DRI (Fa=0,5): 3.69
[3]; [12]
  DRI (Fa=0,5): 1.83
[3]; [13]
  DRI (Fa=0,5): 51.12
[4]; in Carbo+Pacli (10:1)
  DRI (Fa=0,5): 1.46
[4]; in Carbo+Pacli+6thio2dG (10:1:1)
  DRI (Fa=0,5): 0.84
[4]; in Carbo+Pacli+Alpelisib (10:1:2)
  DRI (Fa=0,5): 76.3
[5]; in Carbo+Pacli
  DRI (Fa=0,5): 21.373
[5]; in Carbo+Pacli+6thio2dG
  DRI (Fa=0,5): 16.0626
[5]; in Carbo+Pacli+Alpelisib
  DRI (Fa=0,5): 212.32
[6]; in Carbo+Pacli
  DRI (Fa=0,5): 5.48
[6]; in Carbo+Pacli+6thio2dG
  DRI (Fa=0,5): 5.05
[6]; in Carbo+Pacli+Alpelisib
  DRI (Fa=0,5): 20.6
[7]; drug within Carbo+Pacli
  DRI (Fa=0,5): 3.41
[7]; [14]
  DRI (Fa=0,5): 9.39
[7]; [15]
  DRI (Fa=0,5): 30.81
[8]; drug within Carbo+Pacli
  DRI (Fa=0,5): 3.02
[8]; [14]
  DRI (Fa=0,5): 11.84
[8]; [15]
  DRI (Fa=0,5): 43.02
[9]; in Carbo+Pacli
  DRI (Fa=0,5): 1.15
[9]; in Carbo+Pacli+6thio2dG
  DRI (Fa=0,5): 2.61
[9]; in Carbo+Pacli+Alpelisib
  DRI (Fa=0,5): 33.24
[10]; GCPA028, in combination Carbo+Pacli
  DRI (Fa=0,5): 0.06
[10]; GCPA028, in combination Carbo+Pacli+6thio2dG
  DRI (Fa=0,5): 0.03
[10]; GCPA028, in combination Carbo+Pacli+Alpelisib
  DRI (Fa=0,5): 4.93
[11]; drug within Carbo+Pacli
  DRI (Fa=0,5): 1.85
[11]; [14]
  DRI (Fa=0,5): 2.34
[11]; [15]
  DRI (Fa=0,5): 8.2
